SMILES strings stand for the structures.

Experimental findings from PMC9035832, “Synthesis and Evaluation of a Non-Peptide Small-Molecule Drug Conjugate Targeting Integrin αVβ3” (Frontiers in Chemistry, 2022) are described below.

For one test, the target named is integrin αVβ3 (Homo sapiens, UniProt P05106+P06756). In words: ELISA-like competitive integrin binding assay (vitronectin-coated plates). As to conditions: read-out: Integrin αVβ3 IC50; isolated extracellular domain of human integrin αVβ3, ligand vitronectin; Cilengitide as reference on all plates. A general note: In an ELISA, binding on a coated surface is turned into a signal by an enzyme label.

For another test, the target named is integrin α5β1 (Homo sapiens, UniProt P05556+P08648). In words: ELISA-like competitive integrin binding assay (fibronectin-coated plates). As to conditions: read-out: Integrin α5β1 IC50; isolated extracellular domain of human integrin α5β1, ligand fibronectin; Cilengitide as reference on all plates.

`O=C(N[C@@H](Cc1ccc(OCCCCNc2ncccn2)cc1)C(=O)O)OCc1ccccc1`: the IC50 (usually the concentration needed to halve the response being measured) was 8.29 µM at integrin αVβ3 and greater than 10 µM at integrin α5β1.
